# Patent US6669951B2, “Compositions and methods for enhancing drug delivery across and into epithelial tissues” (CellGate, Inc., priority 1999, dated 2003)
# Test system: skin of nude mice
# Test: Penetration of biotinylated conjugates into skin of nude mice (streptavidin staining)
# Settings: 1 mM-100 μM in PBS, thirty, sixty, 120 minutes
# Method: Samples (100 μl) were applied as a liquid without excipient, prevented from dispersing by a Vaseline™ barrier, and allowed to penetrate for fifteen minutes. At the end of this period the animal was sacrificed, the relevant sections of skin were excised, embedded in mounting medium (OCT), and frozen. Frozen sections (5 microns) were cut using a cryostat, collected on slides, and stained with fluorescently labeled streptavidin (Vector Laboratories, Burlingame, Calif.). The slides were fixed in acetone at 4° C. for ten minutes, air dried, soaked in PBS for five minutes, blocked with normal goat serum for five minutes, and washed with PBS for five minutes. The section was stained by incubation with fluorescently labeled streptavidin at 30 μg/ml for thirty minutes, washed with PBS, counterstained with propidium iodide (1 μg/ml) for two minutes, and the section was mounted with Vectashield™ mounting media. Slides were analyzed by fluorescent microscopy. Parallel studies were done using streptavidin-horse radish peroxidase rather than fluorescein-streptavidin. The biotinylated peptide was visualized by treatment of the sections with the horseradish peroxidase substrate diaminobenzadine, and visualization with light microscopy.
# Alternatively, sample (100 μl) was applied as a liquid without excipient and prevented from evaporating by wrapping plastic wrap over the sample sealed with Vaseline™. […] Slides were analyzed by fluorescent microscopy.
# At the end of this period animal was sacrificed, the relevant section of skin was excised, embedded in mounting medium (OCT) and frozen. […] Slides were analyzed by fluorescent microscopy
# (§1) At the end of this period animal was sacrificed, the relevant section of skin was excised, embedded in mounting medium (OCT) and frozen. […] Slides were analyzed by fluorescent microscopy.
# as §1
row,Substance,penetration of drug conjugates into skin
1,B-aca-r5-Ala-Ala-Cys-O-acyl-Cyclosporin A,very little uptake was seen
2,Biotin-aminocaproic acid-r5-C(hydrocortisone)-CONH2,very little uptake was seen
3,Biotin-aminocaproic acid-r7-C(hydrocortisone)-CONH2,effectively entered into and across the epidermis and into the dermis of the skin of nude mice
